Test system: WDSDEs
Assay: Quality of WDSDEs excised from seeds sanitized in various ways (cleanliness, viability)
Conditions: seed sanitization; 10% Clorox bleach; ethanol used cold (~0° C.)

## H2O2
  cleanliness of WDSDEs excised from treated seed: less efficient

Reference: patent US20220340916A1, “METHODS FOR TRANSFORMING WHEAT EXPLANTS AND COMPOSITIONS THEREFOR” (MONSANTO TECHNOLOGY LLC, priority 2013, published 2022)
